Legend:
Assay in all cases: In vitro competitive activity-based protein profiling (Table 1, mouse IC50)
Type in all cases: biochemical
ABHD6 = ABHD6 (Mus musculus, UniProt Q8R2Y0); conditions: read-out: Mouse (IC50 value, nM) ABHD6, in vitro competitive ABPP
FAAH = FAAH (Mus musculus, UniProt O08914); conditions: read-out: Mouse (IC50 value, nM) FAAH, in vitro competitive ABPP
MAGL = MAGL (Mus musculus, UniProt O35678); conditions: read-out: Mouse (IC50 value, nM) MAGL, in vitro competitive ABPP

Sequences of proteins named here, by UniProt entry; tags and fusion partners are left off. A change or cut given only in a name is not applied to a line headed by its entry.
UniProt Q8R2Y0: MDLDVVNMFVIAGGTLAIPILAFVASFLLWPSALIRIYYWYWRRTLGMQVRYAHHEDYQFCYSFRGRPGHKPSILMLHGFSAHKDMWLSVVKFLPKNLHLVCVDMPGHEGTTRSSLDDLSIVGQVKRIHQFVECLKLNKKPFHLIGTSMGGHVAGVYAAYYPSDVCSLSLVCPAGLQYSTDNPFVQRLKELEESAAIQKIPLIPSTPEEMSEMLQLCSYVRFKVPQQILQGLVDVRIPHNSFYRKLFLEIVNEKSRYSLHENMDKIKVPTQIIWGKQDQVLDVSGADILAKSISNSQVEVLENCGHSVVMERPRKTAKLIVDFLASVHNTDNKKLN
UniProt O08914, whole entry, looked up: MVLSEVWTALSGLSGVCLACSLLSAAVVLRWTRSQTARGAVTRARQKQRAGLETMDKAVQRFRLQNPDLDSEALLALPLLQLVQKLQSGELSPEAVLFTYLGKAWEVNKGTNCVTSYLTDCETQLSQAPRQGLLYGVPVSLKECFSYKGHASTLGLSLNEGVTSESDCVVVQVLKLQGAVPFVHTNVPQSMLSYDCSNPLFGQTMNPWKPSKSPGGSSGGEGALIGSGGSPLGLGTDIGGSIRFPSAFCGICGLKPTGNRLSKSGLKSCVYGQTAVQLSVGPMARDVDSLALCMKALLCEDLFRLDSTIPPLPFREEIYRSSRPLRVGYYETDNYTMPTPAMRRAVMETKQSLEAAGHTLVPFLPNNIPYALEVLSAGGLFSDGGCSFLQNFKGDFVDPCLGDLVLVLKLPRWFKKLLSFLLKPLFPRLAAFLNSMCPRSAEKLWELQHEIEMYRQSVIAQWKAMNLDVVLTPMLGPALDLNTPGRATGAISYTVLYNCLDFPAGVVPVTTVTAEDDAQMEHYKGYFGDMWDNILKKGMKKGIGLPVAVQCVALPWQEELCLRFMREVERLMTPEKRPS
UniProt O35678, whole entry, looked up: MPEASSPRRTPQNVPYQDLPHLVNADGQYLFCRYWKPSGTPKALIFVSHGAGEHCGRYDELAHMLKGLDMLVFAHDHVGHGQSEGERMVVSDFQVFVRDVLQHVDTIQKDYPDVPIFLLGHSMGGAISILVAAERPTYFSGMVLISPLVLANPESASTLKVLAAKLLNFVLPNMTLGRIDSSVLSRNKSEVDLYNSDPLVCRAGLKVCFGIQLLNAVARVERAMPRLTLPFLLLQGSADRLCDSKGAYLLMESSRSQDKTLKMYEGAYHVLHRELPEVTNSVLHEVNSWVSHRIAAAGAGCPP

Question: `CCn1cc(CN2CC3CN(C(=O)OC(C(F)(F)F)C(F)(F)F)CC3C2)c(-c2ccc(N3CCOCC3)cc2)n1` (stereo not drawn) [Example 68, 1,1,1,3,3,3-Hexafluoropropan-2-yl 5-([1-ethyl-3-[4-(morpholin-4-yl)phenyl]-1H-pyrazol-4-yl]methyl)-octahydropyrrolo[3,4-c]pyrrole-2-carboxylate] was tested. Which IC50 (ABHD6) did it give?
Answer: Its IC50 is 1000 to 10000 nM.

Question: What about the IC50 (FAAH) of the same compound?
Answer: Its IC50 is 1000 to 10000 nM.

Question: What about the IC50 (MAGL) of the same compound?
Answer: Its IC50 is < 100 nM.

Reference: patent US9828379B2 (priority 2013, dated 2017)
